The values below come from patent US7671062B2, “Modulators of chemokine receptor activity, crystalline forms and process” (Bristol-Myers Squibb Company, priority 2006, dated 2010).

Molecules are shown by their SMILES.

In experiment [1] the target is T1, human CCR2 (Homo sapiens, UniProt P41597).
T1 sequence (P41597 1-360 isoform P41597-2): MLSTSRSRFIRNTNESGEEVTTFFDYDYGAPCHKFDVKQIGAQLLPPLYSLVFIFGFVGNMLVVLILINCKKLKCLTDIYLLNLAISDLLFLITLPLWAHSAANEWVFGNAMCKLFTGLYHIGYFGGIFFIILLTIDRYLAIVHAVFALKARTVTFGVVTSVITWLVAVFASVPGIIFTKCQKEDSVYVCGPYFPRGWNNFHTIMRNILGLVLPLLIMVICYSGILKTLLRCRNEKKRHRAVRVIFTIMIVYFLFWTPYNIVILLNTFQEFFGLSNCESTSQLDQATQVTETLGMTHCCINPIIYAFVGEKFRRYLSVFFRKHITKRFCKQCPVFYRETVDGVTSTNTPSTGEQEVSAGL
The experiment can be described thus: Human peripheral blood mononuclear cell binding (CCR2 binding), 125I-human MCP-1 tracer. Also on record: hPBMCs were isolated from human leukopak (Biological Specialty Inc.) using a standard protocol with Ficoll-Hypaque; endogenous in cells; host or cells: human peripheral blood mononuclear cells (hPBMCs). Particulars: mean ± SD (n in parentheses). The method, then:
See also: Yoshimura et al., J. Immunol. 1990, 145, 292. The human CCR2 binding assay was established with human peripheral blood mononuclear cells (hPBMCs) using ^125I-human MCP-1 as the tracer ligand. hPBMCs were isolated from human leukopak (Biological Specialty Inc.) using a standard protocol with Ficoll-Hypaque (Mediatech Cellgro). Isolated hPBMCs were washed and diluted to 1×10^7/ml in binding buffer (RPMI-1640, 0.1% BSA, 20 mM Hepes, pH 7.4). ^125I-MCP-1 (NEN/Perk Elmer) was diluted to 0.45 nM in binding buffer. The compound was diluted in binding buffer at 3-fold the final concentrations used in the binding assay. The binding assay was performed using a 96-well filter plate (Millipore). Total ^125I-MCP-1 binding was assessed as follows: to each reaction of a total volume of 150 μl were added 5×10^5 cells, 0.15 nM ^125I-MCP-1, and compound such that the final concentration ranged from 0 to 100 nM. The plate was incubated at room temperature for 30 minutes followed by three washes with RPMI-1640, 0.1% BSA, 0.4 M NaCl, 20 mM Hepes, pH 7.4 using a vacuum manifold filtration (Millipore). […] The plate was sealed and counted on the Trilux for 1 minute. Non-specific binding was determined in the presence of 300 nM cold MCP-1 (PeproTech Inc.). Specific ^125I-MCP-1 was calculated as the difference between total and non-specific binding. […]

For experiment [2], the target named is T1, human CCR2. The experiment can be described thus: cell-based.
Experiment [3] deals with T1, human CCR2. In words: biochemical.
For experiment [4], the target named is T1, human CCR2. The experiment can be described thus: CCR2 chemotaxis, MCP-1-induced, THP-1 cells. It counts as cell-based. Also on record: hPBMCs were isolated from human leukopak (Biological Specialty Inc.) using a standard protocol with Ficoll-Hypaque; endogenous in cells; host or cells: human peripheral blood mononuclear cells (hPBMCs). To be noted: number in brackets = n. As to the method: The human CCR2 chemotaxis assay was conducted with the human monocytic cell line, THP-1. THP-1 cells were first labeled with the fluorescent dye Calcein-AM in phenol red-free, BSA-free RPMI-1640 (pH 7.4) at 37° C. for 30 minutes with gentle mixing every 15 minutes. The labeled cells were then washed and re-suspended at 1×10^5/ml in chemotaxis buffer (phenol red-free RPMI-1640, 0.1% BSA, pH 7.4). The test compound was diluted in chemotaxis buffer such that the final assay concentration ranged from 0.01 nM to 1 μM. The ligand MCP-1 (PeproTech Inc.) was diluted to 20 nM in chemotaxis buffer. To perform the assay, an equal volume of test compound dilutions was mixed with an equal volume of labeled THP-1 cells (Mixture 1), and an equal volume of test compound dilutions was mixed with an equal volume of diluted MCP-1 ligand (Mixture 2). Both mixtures were incubated independently at 37° C. for 10 minutes followed by gentle mixing. MCP-1-induced chemotaxis was then measured in a chemotaxis plate (Becton Dickinson) by placing 50 μl of Mixture 1 in the top chamber and 225 μl of Mixture 2 in the bottom chamber. The plate was covered with a lid and incubated at 37° C. for 30 minutes. 30 minutes later, the plate was read on a Cytofluor. […] The inhibition achieved by graded concentrations of test compound was calculated as a percentage of the compound-free MCP-1 control.

For experiment [5], the target named is CCR2 (Homo sapiens, UniProt P41597). The experiment can be described thus: Cold competition ligand binding to hCCR2 using 125I-human MCP-1.

As a reminder, the IC50 is the concentration that gives 50% inhibition. Broadly, the Ki is the equilibrium dissociation constant of an inhibitor or competing ligand from its target.

`CC(=O)N[C@@H]1C[C@H](N(C)C(C)C)CC[C@@H]1N1CC[C@H](Nc2ncnc3ccc(C(F)(F)F)cc23)C1=O` [Example 1, N-((1R,2S,5R)-5-(isopropyl(methyl)amino)-2-((S)-2-oxo-3-(6-(trifluoromethyl)quinazolin-4-ylamino)pyrrolidin-1-yl)cyclohexyl)acetamide]: the IC50 in experiment [1] was found to be 1.14 ± 0.69 nM; in experiment [2], 0.6 ± 0.3 nM; in experiment [3], 2.2 ± 1.2 nM; in experiment [4], 0.67 ± 0.42 nM. This compound also returned a Ki in experiment [5] of 1.2 nM.
